Values of other authors in US11951146B2, “Stimulation of NK cell activity by using a combination of broccoli, Nigella Sativa, Green Tea, and pterostilbene alone and together with metformin” (Therapeutic Solutions International, Inc., priority 2020, dated 2024).

How the values were obtained:
[1] = tested on: lipopolysaccharide-activated macrophages; conditions: EGCG 5 and 10 microM for 6-24 hr, vs without EGCG
LPS-induced ARDS = conditions: EGCG 10 mg/kg ip 1 h before LPS 10 mg/kg ip
experimental colitis = conditions: 50 and 100 mg/kg/day EGCG vs MD group

epigallocatechin-3-gallate [EGCG]
iNOS activity in soluble extracts [1]: significantly lower | LPS-induced ARDS (blood gases, histological lesions, wet-to-dry weight ratios, MPO activity) (LPS-induced ARDS): attenuated | disease activity index (DAI) and spleen index (SI) (experimental colitis): decreased
